# From article PMC3527569, “Anti-Inflammatory and Vasoprotective Activity of a Retroviral-Derived Peptide, Homologous to Human Endogenous Retroviruses: Endothelial Cell Effects” (PLoS ONE, 2012)
# Test system: carrageenan-induced DIC
# Test: Mouse carrageenan-induced DIC model, lethality
# Format: in vivo, mouse (CD-1)
# Conditions: some protective activity; data not shown
# Experimental: Groups of 10 male CD-1 mice were injected i.p. with 0.25 ml of either vehicle (PBS) or peptide in vehicle at varying times prior to the i.p. injection of 1.0 ml of carrageenan (0.45% [w/v] in PBS; Sigma). In experiments where serum cytokine levels were determined, groups of 5 mice were euthanized at 1-, 2-, 4-, 8-, and 24-h post injection of carrageenan, blood collected by cardiac puncture into heparinized syringes, and the resultant plasma stored at −80°C until assayed by ELISA. […] At 1-, 2-, 4-, and 24-h post injection of carrageenan, five mice from each group were euthanized and heparinized blood samples collected from the heart using heparinized syringes for subsequent determinations of WBC (white blood cell) counts, RBC (red blood cell) counts, or PLT (platelet) counts.
smiles,measurement,value
CC(=O)CCCCn1c(=O)c2c(ncn2C)n(C)c1=O [Pentoxifylline],protection in DIC model,≤ 50%
